Measured values as given in patent US20080261863A1 (priority 2004, published 2008).

Legend:
[1] = biological target: T1, VPAC2 receptor (Homo sapiens, UniProt P41587); assay: Cyclic AMP SPA in CHO cells expressing VPAC2; assay type: cell-based; conditions: cAMP SPA
T1 construct: expressed in transfected cells; host or cells: CHO cells under hygromycin and Geneticin selection
T1 sequence (P41587 24-438): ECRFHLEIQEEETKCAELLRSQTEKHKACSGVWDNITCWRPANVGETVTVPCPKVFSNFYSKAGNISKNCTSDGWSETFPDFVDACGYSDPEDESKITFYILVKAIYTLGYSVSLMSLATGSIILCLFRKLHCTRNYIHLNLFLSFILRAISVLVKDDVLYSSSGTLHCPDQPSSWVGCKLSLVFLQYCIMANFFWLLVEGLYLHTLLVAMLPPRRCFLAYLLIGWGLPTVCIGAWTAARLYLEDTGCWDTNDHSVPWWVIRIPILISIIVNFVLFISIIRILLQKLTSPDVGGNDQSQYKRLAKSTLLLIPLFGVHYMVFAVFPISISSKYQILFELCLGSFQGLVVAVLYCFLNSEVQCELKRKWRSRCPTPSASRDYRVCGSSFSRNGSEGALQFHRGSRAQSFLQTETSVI
Text: The media was removed and the plates were washed with PBS. […] The amount of cAMP (in pmol) produced at each concentration of peptide was plotted and analyzed by nonlinear regression using Prizm software to determine the EC50 for each peptide.

[2] = cited from earlier work
[3] = system: heart rate in dogs; conditions: intravenously at 0.1 nmol/kg; cited from earlier work

PACAP-27
EC50 [1]: 0.09 nM | half-life in vivo [2]: < 10 min | effect on heart rate [3]: two-fold
